The record followed here is patent US20140107021A1 (priority 2010, published 2014).

By UniProt entry, the sequences of proteins in these tests, tags left out. Residues count along the entry.
UniProt P43220, 24-463: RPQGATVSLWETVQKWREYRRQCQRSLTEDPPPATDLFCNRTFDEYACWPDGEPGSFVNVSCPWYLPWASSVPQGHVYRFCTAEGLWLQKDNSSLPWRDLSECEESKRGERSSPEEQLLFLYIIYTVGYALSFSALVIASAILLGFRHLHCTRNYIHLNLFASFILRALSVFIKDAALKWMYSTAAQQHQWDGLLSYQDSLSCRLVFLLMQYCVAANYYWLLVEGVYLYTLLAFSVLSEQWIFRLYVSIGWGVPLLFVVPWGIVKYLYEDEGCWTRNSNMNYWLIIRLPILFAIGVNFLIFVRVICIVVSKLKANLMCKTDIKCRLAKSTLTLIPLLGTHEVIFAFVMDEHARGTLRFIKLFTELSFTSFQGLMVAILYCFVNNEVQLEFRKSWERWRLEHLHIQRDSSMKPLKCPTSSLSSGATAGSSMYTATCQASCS

The target in the experiment is T1, GLP-1 receptor (Homo sapiens, UniProt P43220).
T1 construct: expressed in transfected cells; host or cells: HEK293
Nature of the experiment: cAMP induction at the GLP-1 receptor (agonist activity), firefly luciferase reporter assay in HEK293 cells. In kind it is cell-based. The settings on record: read-out: GLP-1 (EC50); Table 2. (In a reporter assay the amount or activity of a reporter protein is the signal.)

The term EC50 denotes the concentration needed to bring the measured effect to its halfway point. Regarding Native GLP-1 [reference compound], the concentration for a half-maximal effect (EC50) was 0.04 nM.
